Reference: article PMC8861615, “Searching for plant-derived antivirals against dengue virus and Zika virus” (Virology Journal, 2022)

Legend:
[1] = Cytotoxicity (CC50) by MTT method in BHK-21 cells; type: cell-based; details: hamster, compounds
Procedure: (§1) Compounds and selected extracts that tested positive for anti-ZIKV or anti-DENV-2 activity at the screening step had their CC50 determined by using an 8‐point dose range in 96 well microplate containing Vero or BHK-21 cell monolayers. Cell viability was observed by optic microscopy and measured by the MTT method as described. The experiments were performed in duplicate and repeated at least three times.
(§2) Bioassay data were normalized to untreated uninfected cells and the EC50 and CC50 values were obtained using GraphPad Prism 5 based on nonlinear logistic regression of the experimental dose–response curves. The values correspond to three independent assays' average and standard deviation with at least 8 sample distinct concentrations. The CC50 and EC50 values ratio was used as a selectivity index (SI). The extracts and compounds with higher SI values were considered the most promising and selected for further investigation if available in sufficient quantities.

[2] = Cytotoxicity (CC50) by MTT method in Vero cells; type: cell-based; details: African green monkey, compounds
Procedure: as §1, §2

O=C1N[C@@H]2C(=C[C@H](O)[C@@H](O)[C@H]2O)c2cc3c(c(O)c21)OCO3 [Narciclasine]
CC50 [1]: 0.09 µM | CC50 [2]: 0.12 µM
